Target: CB1 receptors (Rattus norvegicus, UniProt P20272)
Assay: Antagonism of WIN 55,212-2 induced hypothermia in vivo
Conditions: WIN 55,212-2 (3 mg/kg) as such
Procedure: The rectal temperature in the rat was determined by an electronic thermometer inserted at a 2 mm depth. The measurements were carried out on rats acclimated for one hour. The rectal temperature was determined before and after (from 30 to 120 minutes) the i.p. administration of the compound to be tested.
Each test was repeated on ten animals; the reported results are the average of the results obtained with the ten animals.

Amino acid sequences for entries named in this document (tags omitted).
UniProt P20272, whole entry: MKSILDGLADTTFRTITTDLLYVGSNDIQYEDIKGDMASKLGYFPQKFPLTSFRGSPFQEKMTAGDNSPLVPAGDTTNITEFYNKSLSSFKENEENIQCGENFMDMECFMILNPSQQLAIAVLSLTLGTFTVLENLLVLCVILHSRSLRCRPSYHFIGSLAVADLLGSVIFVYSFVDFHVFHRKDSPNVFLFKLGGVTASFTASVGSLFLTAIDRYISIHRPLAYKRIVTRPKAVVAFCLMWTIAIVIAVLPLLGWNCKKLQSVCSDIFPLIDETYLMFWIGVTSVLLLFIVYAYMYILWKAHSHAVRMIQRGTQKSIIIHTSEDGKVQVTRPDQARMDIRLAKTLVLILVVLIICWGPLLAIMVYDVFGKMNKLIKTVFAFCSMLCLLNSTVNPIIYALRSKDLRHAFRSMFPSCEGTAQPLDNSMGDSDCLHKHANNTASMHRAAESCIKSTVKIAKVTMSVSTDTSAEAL

## Cc1c(C(=O)c2cccc3ccccc23)c2cccc3c2n1[C@H](CN1CCOCC1)CO3 [WIN 55,212-2, reference compound]
0 min from WIN administration
  Body temperature (° C.): 37.9 °C
15 min
  Body temperature (° C.): 35.6 °C
30 min
  Body temperature (° C.): 33.8 °C
60 min
  Body temperature (° C.): 34.5 °C
90 min
  Body temperature (° C.): 35.8 °C
120 min
  Body temperature (° C.): 36.8 °C

Source: patent US8227620B2, “Pharmaceutical compounds” (Neuroscienze Pharmaness S.C. A.R.L., priority 2004, dated 2012)
